## Binding of CDR-mutated scFvs to a peptide of the spike HR2 region

Source: Engelhart et al. 2022 (doi:10.1038/s41597-022-01779-4), MIT Lincoln Laboratory and A-Alpha Bio; data file from the FLAb repository.

The target is the same throughout: PDVDLGDISGINAS, from the HR2 region of SARS-CoV-2 spike.

The variants keep the light chain, the linker and the frameworks of Ab-91 (scFv order VL, the linker GGGGSGGGGSGGGGS, VH).
VL: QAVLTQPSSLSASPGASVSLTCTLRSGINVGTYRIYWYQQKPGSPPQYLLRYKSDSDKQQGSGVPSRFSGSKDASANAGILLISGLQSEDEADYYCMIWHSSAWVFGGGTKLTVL
VH: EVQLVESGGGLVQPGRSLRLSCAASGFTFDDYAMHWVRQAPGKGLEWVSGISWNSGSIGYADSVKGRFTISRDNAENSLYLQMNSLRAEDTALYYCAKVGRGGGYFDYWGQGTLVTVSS

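Phage display of a naive human antibody library on the peptide gave the parent. In library AAYL51, one, two or three CDR residues were substituted; doubles and triples were drawn at random. The scFvs were displayed on barcoded MATa yeast, the peptide on MATalpha yeast. Mating (16 h, 30 °C) was followed by selection of diploids and sequencing of their barcodes. Each replicate has its own calibration line, from reference interactions of the BCL2 family. Each pool was mated in three replicate cultures.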

Sequences are complete VH domains. Numbers give log10(Kd / nM), so 0 is 1 nM and 3 is 1 µM. Smaller is tighter. A pair that was not seen in that replicate is written "n.d."; this usually means weak binding, but a binder can also be missed. Nonspecific signal, from three strains lacking the peptide, appeared in 21% of pairings of library AAYL51, centred on 4.54 (5% of these signals below 3.26); values are not corrected for it. Also given: how often the same scFv was detected with the empty control strains, with their mean in brackets. For reference, the parent read 1.86 as the reference entry and 0.88 as a member of this library.

{"VH": "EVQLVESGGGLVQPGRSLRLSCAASQFTFDDYAMHWVRQAPGKGLEWVSGNSWNSGSIGYADSVKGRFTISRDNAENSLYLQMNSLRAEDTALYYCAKVSRGGGYFDYWGQGTLVTVSS", "log10 Kd (nM) by replicate": "n.d. n.d. n.d.", "control signals": "0/9"}
{"VH": "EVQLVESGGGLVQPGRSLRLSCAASGFTFDDYAMHWVRQAPGKGLEWVSGPSWNSGSIGGADSVKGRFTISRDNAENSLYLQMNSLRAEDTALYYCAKVGRGGGYFDWWGQGTLVTVSS", "log10 Kd (nM) by replicate": "4.12 4.47 n.d.", "control signals": "7/9 (4.19)"}
{"VH": "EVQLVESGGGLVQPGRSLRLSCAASGFTFDDYAMHWVRQAPGKGLEWVSGISWFSGSIGYADSVKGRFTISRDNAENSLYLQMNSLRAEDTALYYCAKVGRGGGYPDYWGQGTLVTVSS", "log10 Kd (nM) by replicate": "n.d. n.d. n.d.", "control signals": "0/9"}
{"VH": "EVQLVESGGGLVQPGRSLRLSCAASGMTFDDYAMHWVRQAPGKGLEWVSGISWNSVSIGYADSVKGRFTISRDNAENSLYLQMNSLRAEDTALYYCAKVGRGGGYWDYWGQGTLVTVSS", "log10 Kd (nM) by replicate": "4.12 3.87 4.94", "control signals": "4/9 (4.40)"}
{"VH": "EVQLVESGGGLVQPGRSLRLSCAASGATFDDYAMHWVRQAPGKGLEWVSGISWESSSIGYADSVKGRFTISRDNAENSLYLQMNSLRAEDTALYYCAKVGRGGGYFDYWGQGTLVTVSS", "log10 Kd (nM) by replicate": "n.d. n.d. n.d.", "control signals": "0/9"}
{"VH": "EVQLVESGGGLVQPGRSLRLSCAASGFTYDDYAMHWVRQAPGKGLEWVSGISWNSGSIGYADSVKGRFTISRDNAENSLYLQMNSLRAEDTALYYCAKVGRGGGYFFYWGQGTLVTVSS", "log10 Kd (nM) by replicate": "2.24 2.73 1.86", "control signals": "3/9 (3.88)"}
{"VH": "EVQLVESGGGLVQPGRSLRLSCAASGFTFDDYAMHWVRQAPGKGLEWVSGIWWNSGSIGYADSVFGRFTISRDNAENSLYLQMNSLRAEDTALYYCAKVGRGGGYFDTWGQGTLVTVSS", "log10 Kd (nM) by replicate": "4.03 n.d. n.d.", "control signals": "2/9 (4.15)"}
{"VH": "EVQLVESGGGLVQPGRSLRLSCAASGFTFDDYAMIWVRQAPGKGLEWVSGISWNSGSIGYADSVKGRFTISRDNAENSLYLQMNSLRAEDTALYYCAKVGRGGGYKDEWGQGTLVTVSS", "log10 Kd (nM) by replicate": "6.20 6.35 n.d.", "control signals": "3/9 (4.68)"}
{"VH": "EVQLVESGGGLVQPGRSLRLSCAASGFTFDDNAMHWVRQAPGKGLEWVSMISWNSGSIGSADSVKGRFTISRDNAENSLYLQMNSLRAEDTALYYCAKVGRGGGYFDYWGQGTLVTVSS", "log10 Kd (nM) by replicate": "n.d. n.d. n.d.", "control signals": "1/9 (6.00)"}
{"VH": "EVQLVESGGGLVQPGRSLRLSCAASGFTFGDYAMHWVRQAPGKGLEWVSTISWNSGSIGYADSVKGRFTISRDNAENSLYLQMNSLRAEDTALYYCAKVGRGGGYDDYWGQGTLVTVSS", "log10 Kd (nM) by replicate": "n.d. n.d. n.d.", "control signals": "0/9"}
{"VH": "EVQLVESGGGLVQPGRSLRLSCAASRFTYDDYAMHWVRQAPGKGLEWVSGISWNSKSIGYADSVKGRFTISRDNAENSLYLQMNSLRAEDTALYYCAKVGRGGGYFDYWGQGTLVTVSS", "log10 Kd (nM) by replicate": "n.d. n.d. n.d.", "control signals": "0/9"}
{"VH": "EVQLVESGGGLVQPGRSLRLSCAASGFTFDDYAMKWVRQAPGKGLEWVSGISWNSGSMGYMDSVKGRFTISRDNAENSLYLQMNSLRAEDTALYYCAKVGRGGGYFDYWGQGTLVTVSS", "log10 Kd (nM) by replicate": "2.77 n.d. 1.81", "control signals": "0/9"}
{"VH": "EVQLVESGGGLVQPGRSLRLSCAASGKTFDAYAMHWVRQAPGKGLEWVSGISYNSGSIGYADSVKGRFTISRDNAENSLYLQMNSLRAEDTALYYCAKVGRGGGYFDYWGQGTLVTVSS", "log10 Kd (nM) by replicate": "n.d. n.d. n.d.", "control signals": "0/9"}
{"VH": "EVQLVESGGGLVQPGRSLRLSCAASGFTFDDYAIHWVRQAPGKGLEWVSGISWNSGSIGYADSFKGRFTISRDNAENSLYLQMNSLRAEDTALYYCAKVGRGGGYFDYWGQGTLVTVSS", "log10 Kd (nM) by replicate": "4.17 6.01 n.d.", "control signals": "6/9 (4.83)"}
{"VH": "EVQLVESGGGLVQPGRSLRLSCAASGFTFDSYAMHWVRQAPGKGLEWVSGISGNSGSIGYADSVKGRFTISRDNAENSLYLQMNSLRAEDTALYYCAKVGRGGVYFDYWGQGTLVTVSS", "log10 Kd (nM) by replicate": "0.81 0.72 0.08", "control signals": "4/9 (5.04)"}
{"VH": "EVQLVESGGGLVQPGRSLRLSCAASGCTDDDYAMHWVRQAPGKGLEWVSGIYWNSGSIGYADSVKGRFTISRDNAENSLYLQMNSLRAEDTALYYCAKVGRGGGYFDYWGQGTLVTVSS", "log10 Kd (nM) by replicate": "4.50 5.13 5.50", "control signals": "7/9 (4.79)"}
{"VH": "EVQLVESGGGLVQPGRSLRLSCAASGFTFDDYACVWVRQAPGKGLEWVSGISWNSGSIGYADSVKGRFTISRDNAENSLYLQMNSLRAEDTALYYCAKVGRGGGVFDYWGQGTLVTVSS", "log10 Kd (nM) by replicate": "n.d. 5.31 n.d.", "control signals": "1/9 (3.82)"}
{"VH": "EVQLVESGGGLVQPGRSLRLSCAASGFTFDDYAMHWVRQAPGKGLEWVSGISWNSSSIGYQRSVKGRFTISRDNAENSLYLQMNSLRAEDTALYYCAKVGRGGGYFDYWGQGTLVTVSS", "log10 Kd (nM) by replicate": "n.d. 3.03 n.d.", "control signals": "0/9"}
{"VH": "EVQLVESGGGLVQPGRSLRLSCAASGFTFDDYAMLWVRQAPGKGLEWVSGISWNSGSIGYADSVKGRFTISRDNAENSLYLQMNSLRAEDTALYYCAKVGRGGGYCGYWGQGTLVTVSS", "log10 Kd (nM) by replicate": "5.75 4.71 4.13", "control signals": "2/9 (4.23)"}
{"VH": "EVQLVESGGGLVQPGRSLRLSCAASGFTFDDYAMHWVRQAPGKGLEWVSGISWNSASIGYADNVEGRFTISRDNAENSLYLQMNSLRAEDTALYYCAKVGRGGGYFDYWGQGTLVTVSS", "log10 Kd (nM) by replicate": "0.59 0.61 -0.12", "control signals": "3/9 (5.13)"}
{"VH": "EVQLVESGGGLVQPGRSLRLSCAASGFTFGDYAMHWVRQAPGKGLEWVSGISWNSGSIGYMDSVKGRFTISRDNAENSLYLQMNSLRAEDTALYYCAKVGRGGGYFDYWGQGTLVTVSS", "log10 Kd (nM) by replicate": "4.24 3.72 3.33", "control signals": "4/9 (4.37)"}
{"VH": "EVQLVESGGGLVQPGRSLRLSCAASGFTFDDYAMHWVRQAPGKGLEWVSGISWNSGSIGYWDSVKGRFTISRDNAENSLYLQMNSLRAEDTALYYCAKVGRGGGYVDYWGQGTLVTVSS", "log10 Kd (nM) by replicate": "5.33 n.d. n.d.", "control signals": "2/9 (4.28)"}
{"VH": "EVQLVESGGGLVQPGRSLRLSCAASGFTFDDYAMHWVRQAPGKGLEWVSTISWNSGSIGYADGVKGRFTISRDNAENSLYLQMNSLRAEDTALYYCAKVGRGGIYFDYWGQGTLVTVSS", "log10 Kd (nM) by replicate": "4.38 n.d. 5.29", "control signals": "2/9 (5.24)"}

2 of these entries, quoted again:

| VH | log10 Kd (nM) by replicate | control signals |
|---|---|---|
| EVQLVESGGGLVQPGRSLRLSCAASGFTFDDYAMHWVRQAPGKGLEWVSGPSWNSGSIGGADSVKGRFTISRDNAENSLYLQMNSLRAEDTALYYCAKVGRGGGYFDWWGQGTLVTVSS | 4.12 4.47 n.d. | 7/9 (4.19) |
| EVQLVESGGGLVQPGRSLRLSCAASGFTFDDYACVWVRQAPGKGLEWVSGISWNSGSIGYADSVKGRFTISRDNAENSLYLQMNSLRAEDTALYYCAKVGRGGGVFDYWGQGTLVTVSS | n.d. 5.31 n.d. | 1/9 (3.82) |